Screening results deposited in PubChem BioAssay by Broad Institute.
ERp5 inh = inhibitors of human ERp5; ERp5 insulin aggregation, absorbance 650 nm, 90 min; inhibition, % at 9.99 µM; 0.05% of 350,000 active; AID 651711;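 active = mean replicate inhibition above about 25%, with every replicate also reaching it, limit read from the data, passing the limit was not always enough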
PDI inh = inhibitors of human protein disulfide isomerase | P07237 | PDI insulin aggregation turbidity, A650, 90 min | inhibition, % at 10 µM | 0.052% of 350,000 active | AID 588391;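 active = mean inhibition across replicates of 30% or more, whatever share of single replicates reach that level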
UUG fidelity = yeast start codon fidelity modulation; AID 602363; activity score, % at 18.7 µM; S. cerevisiae UUG-firefly luciferase reporter, luminescence/redox ratio; 0.13% of 350,000 active;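 active means replicate mean at a twofold rise or more, about +100% in these data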;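 further: firefly luciferase made from a UUG start codon reports start codon fidelity; reporter light over untreated wells divided by growth signal over untreated wells; some hits fall short of that in this replicate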
Cneo AK release = Cryptococcus neoformans lysis via adenylate kinase release; AID 651654; lysis activity, % at 15 µM; C. neoformans lysis, adenylate kinase release luminescence, 4 h; normalised: neutral wells 0, clomiphene wells 100; 0.2% of 360,000 active;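 active = mean lysis activity across replicates of at least 80%, whatever share of replicates individually reach that level; inactive = mean lysis activity below 80%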
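Assay system: log-phase C. neoformans yeast / Quantity: yeast cell density of 5 × 10^6 cells/mL / Medium: fresh YPD growth medium / Compound: single dose / Timing: static 4 h at 37 °C with compound, 1 h detection / Measured by: adenylate kinase release luminescence / Read-out: lysis from increased AK signal / Benchmarks: Clomiphene as positive lysis control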
Hits are given with their value. Most compounds without a hit are left out; they make up all but 0.34% or so of the library.

C[C@@H]1CCCCO[C@@H](CN(C)C(=O)NC2CCCCC2)[C@@H](C)CN([C@H](C)CO)C(=O)c2cc(NS(=O)(=O)c3cn(C)cn3)ccc2O1 was read as ERp5 inh inactive, UUG fidelity inactive and Cneo AK release inactive.
C[C@H](CO)N1C[C@H](C)[C@H](CN(C)C(=O)NC2CCCCC2)OCCCC[C@H](C)Oc2ccc(NC(=O)C3CCCCC3)cc2C1=O was read as ERp5 inh inactive, UUG fidelity inactive and Cneo AK release 103.8.
CCCN(C)C[C@@H]1OCCCC[C@@H](C)Oc2ccc(NC(=O)Nc3ccccc3)cc2C(=O)N([C@H](C)CO)C[C@@H]1C was read as ERp5 inh inactive, UUG fidelity inactive and Cneo AK release inactive.
Screening CC(C)NC(=O)Nc1ccc2c(c1)C(=O)N([C@@H](C)CO)C[C@@H](C)[C@@H](CN(C)C(=O)NC(C)C)OCCCC[C@@H](C)O2 returned ERp5 inh inactive and Cneo AK release 113.5.
For O=C(C[C@H]1CC[C@H]2[C@@H](COC[C@H](O)CN2Cc2ccccc2F)O1)N[C@@H]1CCN(Cc2ccccc2)C1 the results were ERp5 inh inactive, UUG fidelity inactive and Cneo AK release inactive.
CCNC(=O)C[C@@H]1C=C[C@H](NC(=O)C2CC2)[C@H](CO)O1 was read as ERp5 inh inactive, UUG fidelity inactive and Cneo AK release inactive.
N#C[C@@H]1[C@@H](c2ccc(-c3ccncc3)cc2)[C@@H](CO)N1C(=O)C1CCCC1 was read as ERp5 inh inactive, UUG fidelity inactive and Cneo AK release inactive.
`CC(C)NC(=O)Nc1ccc2c(c1)C(=O)N([C@H](C)CO)C[C@@H](C)[C@H](CN(C)C(=O)Nc1ccccc1)OCCCC[C@@H](C)O2` gave ERp5 inh inactive and Cneo AK release 117.9.
Screening CC(C)NC(=O)Nc1ccc2c(c1)C(=O)N([C@H](C)CO)C[C@H](C)[C@H](CN(C)C(=O)Nc1ccccc1)OCCCC[C@H](C)O2 returned ERp5 inh inactive and Cneo AK release inactive.
For C/C=C/c1ccc2c(c1)O[C@@H](CN(C)Cc1ccc(C(=O)O)cc1)[C@H](C)CN([C@H](C)CO)S2(=O)=O the results were ERp5 inh inactive, UUG fidelity inactive and Cneo AK release inactive.
For C[C@H](CO)N1C[C@H](C)[C@H](CN(C)S(=O)(=O)c2ccccc2)Oc2c(NC(=O)Nc3cccc4ccccc34)cccc2C1=O the results were ERp5 inh inactive.
`Cc1cc(C(=O)Nc2cccc3c2O[C@@H](CN(C)S(=O)(=O)c2ccccc2)[C@@H](C)CN([C@@H](C)CO)C3=O)n(C)n1` gave ERp5 inh inactive, UUG fidelity inactive and Cneo AK release 103.9.
C[C@H](CO)N1C[C@H](C)[C@@H](CN(C)S(=O)(=O)c2ccccc2)Oc2c(NC(=O)Nc3cccc4ccccc34)cccc2C1=O was read as ERp5 inh inactive, UUG fidelity inactive and Cneo AK release 102.7.
Screening CCNC(=O)CC1C(=O)N(C)C(=S)N1NC(=O)c1ccc(Cl)cc1 (stereo unspecified) returned PDI inh inactive, UUG fidelity inactive and Cneo AK release inactive.
Screening Nc1ccc(C(=O)NN2C(=O)[C@H](Cl)C2c2ccc(Cl)cc2)cc1 (stereo partly specified) returned ERp5 inh inactive and PDI inh 56.1.
`CC(C)Sc1nc2ncnc(N)c2[nH]1` gave ERp5 inh inactive, PDI inh inactive, UUG fidelity inactive and Cneo AK release 113.9.
O=c1c2ccccc2sn1-c1ccccc1 was read as PDI inh inactive, UUG fidelity 194.8 and Cneo AK release inactive.
Screening N#C[C@@H]1[C@@H](c2ccc(C#CCC3CCCC3)cc2)[C@H](CO)N1C(=O)c1ccccn1 returned ERp5 inh inactive, UUG fidelity inactive and Cneo AK release inactive.
For N#C[C@H]1[C@@H](c2ccc(C#CCC3CCCC3)cc2)[C@@H](CO)N1C(=O)c1ccccn1 the results were ERp5 inh inactive, UUG fidelity inactive and Cneo AK release 111.4.
For COc1cccc(S(=O)(=O)N2CCCCN3[C@@H](CO)[C@@H](c4ccc(C#CCC(C)C)cc4)[C@@H]3C2)c1 the results were ERp5 inh inactive, UUG fidelity inactive and Cneo AK release 83.9.
Screening CCS(=O)(=O)N1CCCCN2[C@H](C1)[C@@H](c1ccc(-c3ccc(C#N)cc3)cc1)[C@@H]2CO returned ERp5 inh inactive, UUG fidelity inactive and Cneo AK release 90.9.
CCS(=O)(=O)N1CCCCN2[C@H](CO)[C@H](c3ccc(-c4ccc(C#N)cc4)cc3)[C@@H]2C1 was read as ERp5 inh inactive, UUG fidelity inactive and Cneo AK release inactive.
For C[C@@H](O)C#Cc1ccc([C@@H]2[C@H](CO)N3CCCCN(CC4CC4)C[C@@H]23)cc1 the results were ERp5 inh inactive, UUG fidelity inactive and Cneo AK release 102.7.
Screening COc1cccc(S(=O)(=O)N2CCCCN3[C@H](C2)[C@@H](c2ccc(C#CCC(C)C)cc2)[C@@H]3CO)c1 returned ERp5 inh inactive, UUG fidelity inactive and Cneo AK release inactive.
O=C(Cc1cccnc1)N1CC(=O)N2[C@H](C1)[C@H](c1ccc(/C=C/c3ccccc3)cc1)[C@@H]2CO was read as ERp5 inh inactive.
COC(=O)C[C@H]1C[C@H]2c3cc(NC(=O)Nc4ccccc4F)ccc3O[C@H]2[C@@H](CO)O1 was read as ERp5 inh inactive, UUG fidelity inactive and Cneo AK release inactive.
Screening NS(=O)(=O)c1cccc(NC(=S)NC(=O)c2cccc([N+](=O)[O-])c2)c1 returned ERp5 inh inactive, PDI inh inactive, UUG fidelity inactive and Cneo AK release inactive.
O=C(NC(=S)Nc1cccc(NC(=O)c2ccccc2)c1)c1cccc([N+](=O)[O-])c1 was read as PDI inh 31.7, UUG fidelity inactive and Cneo AK release inactive.
O=C(NC(=S)Nc1ccccc1N1CCOCC1)c1cccc([N+](=O)[O-])c1 was read as ERp5 inh inactive, PDI inh inactive, UUG fidelity inactive and Cneo AK release 258.4.
For O=C(CCS(=O)(=O)c1ccccc1)N(CCCN1CCOCC1)c1nc2ccccc2s1 the results were ERp5 inh inactive and PDI inh 37.9.
`COc1ccc(-c2coc3c(C)c4oc(=O)c(CCC(=O)O)c(C)c4cc23)cc1` gave PDI inh 51.8, UUG fidelity inactive and Cneo AK release inactive.
`Cc1c(CCC(=O)O)c(=O)oc2c(C)c3occ(-c4ccc(Br)cc4)c3cc12` gave ERp5 inh inactive, PDI inh inactive, UUG fidelity inactive and Cneo AK release inactive.
C[C@@H]1CN([C@@H](C)CO)C(=O)c2cc(NC(=O)Nc3ccccc3)ccc2O[C@@H]1CN(C)C(=O)Nc1cccc2ccccc12 was read as ERp5 inh inactive, UUG fidelity inactive and Cneo AK release 108.2.
`C[C@H]1CN([C@@H](C)CO)C(=O)c2cccc(N(C)C)c2O[C@@H]1CN(C)C(=O)Nc1cccc2ccccc12` gave ERp5 inh inactive, UUG fidelity inactive and Cneo AK release 84.5.
